Antibody variant affinities, Ab-14 light chain, assay B

Data: MIT Lincoln Laboratory AlphaSeq set, Li et al. 2023, doi:10.1038/s41467-023-39022-2, as distributed in FLAb.

All variants were tested on one target, the spike HR2 peptide PDVDLGDISGINAS (SARS-CoV-2).

Ab-14 is the parent antibody, in scFv form: VH, then three GGGGS repeats, then VL. The heavy chain is unchanged in all variants.
VH: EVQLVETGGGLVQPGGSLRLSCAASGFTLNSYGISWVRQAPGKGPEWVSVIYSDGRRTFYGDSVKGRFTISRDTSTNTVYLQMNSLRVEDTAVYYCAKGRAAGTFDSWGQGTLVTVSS
VL: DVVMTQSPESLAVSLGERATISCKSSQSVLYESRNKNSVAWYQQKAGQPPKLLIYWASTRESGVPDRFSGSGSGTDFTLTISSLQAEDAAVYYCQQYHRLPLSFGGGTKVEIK

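The starting antibody came from a phage panning campaign against this peptide. Designed CDR sequences, proposed from the first random library and measured here. Several design methods are mixed in this list. The assay is AlphaSeq: two haploid yeast populations carry antibody and antigen on their surface. After mating in shaken culture at 30 °C for 16 h, diploids were selected and their barcode pairs sequenced. Scores were corrected for input abundance and mapped to Kd with protein pairs of known affinity run in the same pool. Mating was done six times.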

Sequences are complete VL domains. Affinities are written as log10 Kd with Kd in nM; a lower number is a better binder. The mean shown is taken over the replicates in which the pair was detected. An entry "nd" has no value in the source: the pair was not observed among the diploids in any replicate. This suggests poor binding but is not conclusive. Order: sorted from the lowest average up, undetected variants last.

"mean, log10 nM",replicates with signal,VL
-0.24,6/6,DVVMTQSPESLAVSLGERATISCKLQQSVLYESRNKNSVAWYQQKAGQPPKLLIYNASTREWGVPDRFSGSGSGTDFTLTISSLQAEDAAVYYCQQYHRLPLSFGGGTKVEIK
-0.21,6/6,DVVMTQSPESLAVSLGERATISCKLSQSTLYEQRNTNSVAWYQQKAGQPPKLLIYQASQRLSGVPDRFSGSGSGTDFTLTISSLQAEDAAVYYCQQYHRLPLSFGGGTKVEIK
-0.04,6/6,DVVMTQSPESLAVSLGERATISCKSMQLEQYEDRNKNSVAWYQQKAGQPPKLLIYEASTRCSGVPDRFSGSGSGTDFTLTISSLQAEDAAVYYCQQYHRLPLSFGGGTKVEIK
-0.04,6/6,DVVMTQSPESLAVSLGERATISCKSSTSGLYESRMKNSVAWYQQKAGQPPKLLIYEASTRESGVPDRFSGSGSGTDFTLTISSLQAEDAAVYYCQQYHRLPLSFGGGTKVEIK
-0.03,6/6,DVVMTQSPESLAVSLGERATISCKLSQSELYESRMKNSVAWYQQKAGQPPKLLIYNASERESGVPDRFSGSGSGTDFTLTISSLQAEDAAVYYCQQYHRLPLSFGGGTKVEIK
0.05,6/6,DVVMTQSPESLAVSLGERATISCKLSQSVGYESRNKNSVAWYQQKAGQPPKLLIYEASQRESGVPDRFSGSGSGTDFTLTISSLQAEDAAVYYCQQYHRLPLSFGGGTKVEIK
0.10,6/6,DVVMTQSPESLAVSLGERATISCKSSQSWLYESRNKNSVAWYQQKAGQPPKLLIYGASRREVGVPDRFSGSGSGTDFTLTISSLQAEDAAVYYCQQYHRLPLSFGGGTKVEIK
0.13,6/6,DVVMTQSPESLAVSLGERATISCKFSQSVPYESRTKNSVAWYQQKAGQPPKLLIYNASTRESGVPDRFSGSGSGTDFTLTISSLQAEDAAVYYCQQYHRLPLSFGGGTKVEIK
0.22,6/6,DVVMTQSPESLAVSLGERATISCNVDISANVGYMHKAAVAWYQQKAGQPPKLLIYEHDMRVGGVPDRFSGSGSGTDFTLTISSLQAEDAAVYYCQQYYRLPLAFGGGTKVEIK
0.35,6/6,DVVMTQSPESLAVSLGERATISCKSSQSVLYESDNKNSVAWYQQKAGQPPKLLIYNASTRESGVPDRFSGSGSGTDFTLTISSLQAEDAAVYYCQQYHRLPLSFGGGTKVEIK
0.83,6/6,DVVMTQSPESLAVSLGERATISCKSSQSVLYESRNKNSVAWYQQKAGQPPKLLIYEASTRMSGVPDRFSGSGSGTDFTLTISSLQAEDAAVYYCQQYHRLPLSFGGGTKVEIK
0.96,6/6,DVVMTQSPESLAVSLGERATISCMVSQLMLWGHMAKNSIAWYQQKAGQPPKLLIYEAQTRLNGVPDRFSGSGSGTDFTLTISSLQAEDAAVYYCQQYDRLPLFFGGGTKVEIK
0.99,6/6,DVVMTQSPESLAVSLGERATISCMIGDMGLHDSRIQNSVAWYQQKAGQPPKLLIYNNSTREAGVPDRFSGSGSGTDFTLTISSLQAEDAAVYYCQQYDRLPLSFGGGTKVEIK
1.04,6/6,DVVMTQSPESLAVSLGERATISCMMSQVTMSGMRHRNNVAWYQQKAGQPPKLLIYQTSTREPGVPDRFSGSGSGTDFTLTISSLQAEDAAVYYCQQYDRLPLIFGGGTKVEIK
1.10,6/6,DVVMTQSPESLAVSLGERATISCKVSQSVPAESKNKNSVAWYQQKAGQPPKLLIYWASTRESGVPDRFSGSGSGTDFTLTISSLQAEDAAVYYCQQYHELPLSFGGGTKVEIK
1.10,6/6,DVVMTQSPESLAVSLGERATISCKLSQSVLAESRNKGSVAWYQQKAGQPPKLLIYWASTRESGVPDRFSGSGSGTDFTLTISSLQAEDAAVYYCQQYIRLPLSFGGGTKVEIK
1.43,6/6,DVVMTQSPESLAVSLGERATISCKIGHTLNTLYEKANNVAWYQQKAGQPPKLLIYDLVARENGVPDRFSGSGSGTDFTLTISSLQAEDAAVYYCQQYHRLPLSFGGGTKVEIK
1.65,6/6,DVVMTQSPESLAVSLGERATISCKLRQSTLYESRNKNEVAWYQQKAGQPPKLLIYSASTRESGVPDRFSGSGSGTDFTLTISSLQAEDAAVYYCQQYHRLPLSFGGGTKVEIK
1.66,6/6,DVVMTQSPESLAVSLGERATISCKSLWSVLYESNNKNPVAWYQQKAGQPPKLLIYHASTREDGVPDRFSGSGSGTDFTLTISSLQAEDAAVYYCQQYHRLPLSFGGGTKVEIK
1.73,6/6,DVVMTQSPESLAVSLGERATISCKSSQSVLYESRNKNSVAWYQQKAGQPPKLLIYWASTRELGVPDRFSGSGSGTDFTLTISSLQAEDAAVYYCQQYHHLPLSFGGGTKVEIK
1.93,1/6,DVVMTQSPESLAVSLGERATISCKSSYSTLYESRNKNSVAWYQQKAGQPPKLLIYWASTRESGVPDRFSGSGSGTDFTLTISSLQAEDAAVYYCQQYKRLPLSFGGGTKVEIK
1.96,2/6,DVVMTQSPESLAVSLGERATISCKSSQSVLYEGRNKNSVAWYQQKAGQPPKLLIYFASTRENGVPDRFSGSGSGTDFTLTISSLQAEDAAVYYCQNHHRLPLSFGGGTKVEIK
2.31,6/6,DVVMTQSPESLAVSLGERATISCQMTGQLFEQGNRSEPIAWYQQKAGQPPKLLIYHESMKETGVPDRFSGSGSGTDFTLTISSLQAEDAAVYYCQQYAQLPLTFGGGTKVEIK
2.68,2/6,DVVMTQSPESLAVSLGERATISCKSSQSVLFESRNKNSLAWYQQKAGQPPKLLIYDASTRESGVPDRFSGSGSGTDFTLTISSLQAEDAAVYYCQMYHRLPLSFGGGTKVEIK
2.84,2/6,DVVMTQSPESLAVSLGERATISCKSSQSVLYESRNKNSVAWYQQKAGQPPKLLIYWASTRESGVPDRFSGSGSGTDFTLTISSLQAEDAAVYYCQQYCRLPFSFGGGTKVEIK
nd,0/6,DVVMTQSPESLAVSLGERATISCKSSNSVLIESRNKNSVAWYQQKAGQPPKLLIYWASTRESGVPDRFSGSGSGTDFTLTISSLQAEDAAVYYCQQHHRLPLSFGGGTKVEIK

Picked from the list: the 2 lowest averages where every replicate gave a value.

VL,"mean, log10 nM",replicates with signal
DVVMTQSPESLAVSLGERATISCKLQQSVLYESRNKNSVAWYQQKAGQPPKLLIYNASTREWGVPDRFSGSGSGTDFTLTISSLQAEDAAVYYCQQYHRLPLSFGGGTKVEIK,-0.24,6/6
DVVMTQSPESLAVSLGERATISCKLSQSTLYEQRNTNSVAWYQQKAGQPPKLLIYQASQRLSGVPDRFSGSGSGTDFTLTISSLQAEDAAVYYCQQYHRLPLSFGGGTKVEIK,-0.21,6/6

A sequence measured in both rounds can read differently, since the two assays cover different ranges. Nonspecific signal, from three strains lacking the peptide, appeared in 4% of pairings of all light chain designs, centred on 2.64 (5% of these signals below 1.59); values are not corrected for it. In the paper, a design with two or fewer of six values counts as a poor binder.